Protein sequences, listed by entry. Tags and fused reporters are not part of them.
UniProt P08238, whole entry: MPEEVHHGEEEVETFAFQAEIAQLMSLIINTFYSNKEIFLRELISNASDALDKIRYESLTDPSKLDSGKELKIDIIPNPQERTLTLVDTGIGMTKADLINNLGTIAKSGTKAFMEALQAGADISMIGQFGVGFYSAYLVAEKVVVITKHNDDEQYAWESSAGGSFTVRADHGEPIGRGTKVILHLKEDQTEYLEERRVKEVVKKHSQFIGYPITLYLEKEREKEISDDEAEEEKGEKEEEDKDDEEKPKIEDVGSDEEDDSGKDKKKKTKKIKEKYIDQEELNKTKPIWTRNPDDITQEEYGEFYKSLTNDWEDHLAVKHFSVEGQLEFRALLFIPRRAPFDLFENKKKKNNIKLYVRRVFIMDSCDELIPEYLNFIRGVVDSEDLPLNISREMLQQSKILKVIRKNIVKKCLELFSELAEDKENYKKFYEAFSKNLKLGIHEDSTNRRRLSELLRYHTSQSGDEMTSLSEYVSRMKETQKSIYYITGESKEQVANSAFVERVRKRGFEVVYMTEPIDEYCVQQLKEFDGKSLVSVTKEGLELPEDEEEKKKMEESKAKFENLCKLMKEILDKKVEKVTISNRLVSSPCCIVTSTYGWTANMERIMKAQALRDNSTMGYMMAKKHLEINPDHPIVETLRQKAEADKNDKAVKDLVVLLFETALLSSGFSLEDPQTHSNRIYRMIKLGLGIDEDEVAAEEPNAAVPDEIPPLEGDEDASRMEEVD

According to US20090069336A1, “PYRIMIDOTHIOPHENE COMPOUNDS” (VERNALIS (CAMBRIDGE) LIMITED., priority 2004, published 2009):

Target: human full-length HSP90 (Homo sapiens, UniProt P08238)
Assay: Fluorescence polarization assay (competitive displacement of probe RBT0051001-FAM from HSP90)
Details: read-out: activity in the fluorescence polarization assay; activity range stated in each example
Description: Fluorescence Polarization Assay
Fluorescence polarization {also known as fluorescence anisotropy} measures the rotation of a fluorescing species in solution, where the larger molecule the more polarized the fluorescence emission. When the fluorophore is excited with polarized light, the emitted light is also polarized. The molecular size is proportional to the polarization of the fluorescence emission.
The fluoroscein-labelled probe —RBT0051001-FAM—
binds to HSP90 {full-length human, full-length yeast or N-terminal domain HSP90} and the anisotropy {rotation of the probe:protein complex} is measured.
Test compound is added to the assay plate, left to equilibrate and the anisotropy measured again. Any change in anisotropy is due to competitive binding of compound to HSP90, thereby releasing probe. […]
• 3) Aliquot 100 μl assay mix to all other wells • 4) Seal plate and leave in dark at room temp for 20 minutes to equilibrate Compound Dilution Plate—1×3 dilution series • 1) In a clear 96-well v-bottom plate-{# VWR 007/008/257} add 10 μl 100% DMSO to wells B1 to H11 • 2) To wells A1 to A11 add 17.5 μl 100% DMSO • 3) Add 2.5 μl cpd to A1. […] Add 2 μl of 100 mM standard cpd to wells B12-H12 {is positive control} • 13) The Z′ factor is calculated from zero controls and positive wells. […]

- IC50: < 10 µM
Structure (SMILES): Cc1sc(N)nc1-c1cc2c(-c3ccc(Cl)cc3Cl)nc(N)nc2s1
